The source of these data is US5534542A, “Methods and materials relating to a bi-metallic cross-linking species” (priority 1994, dated 1996).

The data set can be described thus: Solubility of the cross-linker complex in solvents. The class given is physicochemical. As to conditions: compared with the Step 9 crosslinker. The source says: The cross-linker species of the present invention has been characterized by a combination of analytical and spectroscopic techniques. […] The complex is quite soluble in DMSO, although a warning has been issued concerning the compositions of DMSO solutions of cisplatin derivatives (Sundquist, 1987). The proton NMR spectrum of the complex in d7-DMF is poorly resolved, and the resonances due to the residual protons in the deuterated solvent tend to obscure parts of the spectrum of the complex.
This appears to be an effect of particle size on dissolution rate, since no differences can be discerned in the infrared spectra of the complex before or after this treatment. In particular there is no evidence for coordinated DMSO in the region 1000-1200 cm-^1.

Consider “5-(chloromercuri)-pentane-1,2-diammine(dimethylsulfoxide)-chloroplatinum(II) chloride [Complex 8]”, for which the aqueous solubility entry is “improved aqueous solubilities”.
